Experimental data taken from PubChem BioAssay AID2445 (The Scripps Research Institute Molecular Screening Center, 2010).
Only a part is listed here, and it is no random draw. The source made the active and inactive calls.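 The calls were made as follows: active = activation above that plate's cutoff, the mean activation of tested compounds plus 3 SD (cut at about 6.6% in these data, passing the limit was not always enough); inactive = the rest.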

By UniProt entry, the sequences of proteins in these tests, tags left out.
UniProt P30559, whole entry: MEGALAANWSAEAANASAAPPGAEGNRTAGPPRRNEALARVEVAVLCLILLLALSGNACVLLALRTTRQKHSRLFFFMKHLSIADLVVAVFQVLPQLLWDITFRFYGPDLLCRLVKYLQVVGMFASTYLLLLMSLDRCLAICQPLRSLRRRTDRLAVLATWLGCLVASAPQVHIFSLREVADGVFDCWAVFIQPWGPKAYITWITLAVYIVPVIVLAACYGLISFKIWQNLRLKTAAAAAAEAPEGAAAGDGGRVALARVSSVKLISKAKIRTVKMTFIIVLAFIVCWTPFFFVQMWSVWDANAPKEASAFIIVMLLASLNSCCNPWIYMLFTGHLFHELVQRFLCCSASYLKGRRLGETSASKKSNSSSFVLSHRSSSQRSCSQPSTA

target: Oxytocin receptor (Homo sapiens) (UniProt P30559); experiment: enhancers of oxytocin-evoked OXTR calcium signal – fluorescence, CHO-OTR cells, Fluo-8 calcium, primary screen (AID 2445); settings: Fluo-8 calcium fluorescence, potentiator mode, at 3 µM, active compounds read high, 0% = oxytocin EC15, 100% = EC100;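 also: 100% uses oxytocin at 75 nM as the full agonist control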

| SMILES | activation |
| --- | --- |
| O=C(NCC1(N2CCCCC2)CCCCC1)c1cccc([N+](=O)[O-])c1 | inactive: -4.71% |
| CCN1CCC(Nc2ccc(Cl)cc2)CC1 | inactive: -6.82% |
| N#CC1(Nc2ccccc2)CCN(CCc2ccccc2)CC1 | inactive: -13.7% |
| O=C(NCC1(N2CCCCC2)CCCCC1)c1ccc(OC(F)F)cc1 | inactive: -6.12% |
| COc1ccc(NC2CCN(C(=O)OC(C)(C)C)CC2)cc1 | inactive: -2.23% |
| CN1CCN(CCOC(=O)C(O)(c2ccccc2)c2ccccc2)CC1 | inactive: -5.79% |
| O=C(NCC1(N2CCOCC2)CCCCC1)c1cc(=O)[nH]c2ccccc12 | inactive: -17.2% |
| COc1cc(C(=O)NCC2(N3CCCCC3)CCCCC2)ccc1OC(F)F | inactive: -5.45% |
| O=C(NCC1(N2CCCCC2)CCCCC1)c1cccc(C(F)(F)F)c1 | inactive: 0.89% |
| COc1cc(OC)c(C(=O)NCC2(N(C)C)CCCCC2)cc1OC | inactive: -4.88% |
| O=C(NCC1(N2CCOCC2)CCCCC1)c1cc(F)c(F)cc1Cl | inactive: -2.48% |
| COc1ccc(CN(CCCl)CCCl)cc1Cl | inactive: -4.99% |
| CN(C)c1cccc(C(=O)NCC2(N3CCCCC3)CCCCC2)c1 | inactive: -1.1% |
| CC(C)c1ccc(NC2CCN(C(=O)OC(C)(C)C)CC2)cc1 | inactive: -3.28% |
| CN1CCC(Nc2cccc(F)c2)CC1 | inactive: -2.38% |
| O=C(NCC1(N2CCCCC2)CCCCC1)c1cncc(Br)c1 | inactive: -1.65% |
| CSc1ccccc1C(=O)NCC1(N2CCCCC2)CCCCC1 | inactive: -3.35% |
| O=C(NCC1(N2CCCCC2)CCCCC1)c1ccc(=O)[nH]c1 | inactive: 0.91% |
| O=C(NCC1(N2CCCCC2)CCCCC1)c1cccs1 | inactive: 1.48% |
| COc1ccc(C(=O)NCC2(N3CCCCC3)CCCCC2)cc1 | inactive: -1.07% |
| COc1ccc(C(=O)NCC2(N3CCCCC3)CCCCC2)c(OC)c1OC | inactive: -1.77% |

| SMILES | activation |
| --- | --- |
| CC(C)(C)OC(=O)N1CCC(N(C(=O)c2ccccc2)c2ccc(F)cc2)CC1 | inactive: -13.3% |
| CCOC(=O)N1CCC(Nc2ccc(OC)cc2)CC1 | inactive: 0.57% |
| O=C(NCC1(N2CCCCC2)CCCCC1)c1ccc(Cl)s1 | inactive: 1.38% |
| N#CC1(Nc2ccccc2)CCN(Cc2ccccc2)CC1 | inactive: 4.92% |
| O=C(OC1CN2CCC1CC2)C1c2ccccc2Oc2ccccc21 (stereo not drawn) | inactive: -2.91% |
| COc1ccc(Cl)cc1C(=O)NCC1(N2CCOCC2)CCCCC1 | inactive: -2.97% |
| O=C(NCC1(N2CCOCC2)CCCCC1)c1cc2ccccc2o1 | inactive: -9.08% |
| O=C(NCC1(N2CCCCC2)CCCCC1)c1ccc(Cl)nc1 | inactive: -1.93% |
| Cc1cc(C)cc(N(C(=O)c2ccccc2)C2CCN(C(=O)OC(C)(C)C)CC2)c1 | inactive: -19.2% |
| O=C(NCC1(N2CCCCC2)CCCCC1)c1ccc(F)cc1 | inactive: -2.18% |
| COc1ccc(NC2CCN(CCc3ccccc3)CC2)c(OC)c1 | inactive: -6.9% |
| CCOc1ccc(C)cc1CN(CCCl)CCCl | inactive: -11.4% |
| CCOC(=O)N1CCC(Nc2cccc(C)c2)CC1 | inactive: 1.22% |
| Cc1ccc(OCC(C)C)c(CN(CCCl)CCCl)c1 | inactive: -5.5% |
| Cc1ccc(C(=O)NCC2(N3CCCCC3)CCCCC2)o1 | inactive: -4.76% |
| Fc1ccccc1NC1CCN(Cc2ccccc2)CC1 | inactive: -1.22% |
| COc1cc(OC)cc(C(=O)NCC2(N3CCCCC3)CCCCC2)c1 | inactive: -1.96% |
| O=C(NCC1(N2CCCCC2)CCCCC1)c1ccco1 | inactive: 2.54% |
| CN(C)c1ccc(C(=O)NCC2(N3CCCCC3)CCCCC2)cc1 | inactive: 5.63% |
| CCN1CCC(Nc2cccc(F)c2)CC1 | inactive: -7.37% |
| CCCOc1ccc(C(=O)NCC2(N(C)C)CCCCC2)cc1 | inactive: -2.85% |

| SMILES | activation |
| --- | --- |
| CC(C)(C)OC(=O)N1CCC(Nc2ccccc2)CC1 | inactive: 8.07% |
| O=C(O)C1(Nc2ccccc2)CCN(Cc2ccccc2)CC1 | inactive: -16% |
| CCOc1ncccc1C(=O)NCC1(N2CCOCC2)CCCCC1 | inactive: -6.12% |
| CN1CCC(Nc2ccc(F)c(Cl)c2)CC1 | inactive: -12.4% |
| CCCOc1ccc(C)cc1CN(CCCl)CCCl | inactive: -3.81% |
| CN1CCC(Nc2ccc(Cl)cc2)CC1 | inactive: -5.58% |
| CCC(CO)(C(=O)OC1CN2CCC1CC2)c1ccccc1 (stereo not drawn) | inactive: -0.93% |
| COc1cccc(C(=O)N(c2cc(C)cc(C)c2)C2CCN(C(=O)OC(C)(C)C)CC2)c1 | inactive: -18.8% |
| COc1cc(OC)cc(C(=O)NCC2(N3CCOCC3)CCCCC2)c1 | inactive: -5.75% |
| COc1ccc(C(=O)NCC2(N3CCOCC3)CCCCC2)cc1OC | inactive: -17.1% |
| O=C(NCC1(N2CCOCC2)CCCCC1)c1cc(Br)ccc1Cl | inactive: -2.33% |
| COc1cc(C(=O)NCC2(N3CCOCC3)CCCCC2)cc(OC)c1C | inactive: -2% |
| CCc1cc(C(=O)NCC2(N3CCCCC3)CCCCC2)sc1C | inactive: -7.13% |
| O=C(OC1CN2CCC1CC2)C1c2ccccc2C=Cc2ccccc21 (stereo not drawn) | inactive: 0.12% |
| N/C(=N\O)c1c(N)no[n+]1[O-] | inactive: -12.1% |
| CCOC(=O)N1CCC(Nc2ccc(C)cc2)CC1 | inactive: -2.52% |
| CC(C)(C)OC(=O)N1CCC(N(C(=O)c2ccccc2)c2ccc(Cl)cc2)CC1 | inactive: -19.3% |
| N#Cc1ccc(C(=O)NCC2(N3CCCCC3)CCCCC2)cc1 | inactive: -6.65% |
| c1ccc(CN2CCC(Nc3ccccc3)CC2)cc1 | inactive: -7.48% |
| CCCN1CCC(Nc2cc(OC)cc(OC)c2)CC1 | inactive: -10.2% |
| CN(C)C1(CNC(=O)c2cccc(C#N)c2)CCCCC1 | inactive: -2.09% |
